In patent US10525030B2 (priority 2013, dated 2020):

What follows are compounds tested on MES test (electrical stimulus through corneal electrodes) (assay: Anti-excitation activity using MES test). Conditions: mice, injection amount 50 mg/kg; percentage of activity compared to the vehicle only.
Format: in vivo, male ICR mice

**Q.** `C[C@H](OC(N)=O)[C@@H](O)c1ccccc1F` was tested. Which “MES test(po) Protection %” value did it give?
**A.** Its value is 50 ^a(100%).

**Q.** How did the “MES test(po) Protection %” value turn out when `C[C@H](OC(N)=O)[C@@H](O)c1ccccc1I` [Compound 65, 1-(2-iodophenyl)-(S)-1-hydroxypropyl-(S)-2-carbamate] was run?
**A.** Its value is 50 ^a(100%).

Same assay, conditions: mice, injection amount 100 mg/kg; percentage of activity compared to the vehicle only

**Q.** With `CCCC[C@H](OC(N)=O)[C@@H](O)c1c(Cl)cccc1Cl` as the compound, how does the “MES test(po) Protection %” value read?
**A.** The value was 100 ^a(75%).

**Q.** With `CCC(OC(N)=O)C(O)c1ccccc1Cl` (racemic) as the compound, how does the “MES test(po) Protection %” value read?
**A.** Its value is 100 ^a(100%).

**Q.** For `CCCC[C@H](OC(N)=O)[C@@H](O)c1ccc(Cl)cc1Cl`, which “MES test(po) Protection %” value is on record?
**A.** Its value is 100 ^a(25%).

**Q.** For `CCCC[C@H](OC(N)=O)[C@@H](O)c1ccccc1Cl`, which “MES test(po) Protection %” value is on record?
**A.** Its value is 100 ^a(75%).

**Q.** `CC[C@H](OC(N)=O)[C@@H](O)c1ccccc1I` [Compound 67, 1-(2-iodophenyl)-(S)-1-hydroxybutyl-(S)-2-carbamate] was tested. Which “MES test(po) Protection %” value did it give?
**A.** The value was 100 ^a(100%).

Same assay, conditions: mice, injection amount 200 mg/kg; percentage of activity compared to the vehicle only

**Q.** How did the “MES test(po) Protection %” value turn out when `CCCCC(OC(N)=O)C(O)c1ccccc1Cl` (racemic) was run?
**A.** The value was 200 ^a(100%).

**Q.** For `CCCC[C@@H](OC(N)=O)[C@H](O)c1ccccc1Cl`, which “MES test(po) Protection %” value is on record?
**A.** Its value is 200 ^a(75%).
